Statin myotox sup: protects C2C12 myotubes from simvastatin toxicity. ATP luminescence, 48 h; scaled: DMSO 0, geranylgeraniol control 100. rescue of ATP level, % at 7.49 µM. 330,000 compounds, 0.78% hits;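 active = mean ATP rescue above about 67%, or every replicate alone reaching that limit, limit read from the data, passing the limit was not always enough; inconclusive = no clear call, values can overlap the other calls; inactive = mean under the limit and some replicate under it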;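 note: myotubes were challenged with 10 µM simvastatin during compound exposure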
PGC1a acetyl inh: lowers PGC1a acetylation signal in U2OS cells; AlphaScreen anti-acetyl-lysine; with virally co-expressed GCN5 acetyltransferase; 350,000 compounds, 0.17% hits; inhibition, % at 15.6 µM;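 active = every replicate shows inhibition of at least 40%; inconclusive = mean inhibition at least 40% but some replicate below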;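 note: 0% = neutral control wells and 100% = positive control wells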
PglD DTNB: blocks C. jejuni PglD acetyltransferase activity; inhibition, % at 12.5 µM; purified PglD enzyme, DTNB colorimetric CoA detection; 360,000 compounds, 0.098% hits; in the data active = inhibition above about 16%, passing the limit was not always enough; inconclusive = no clear call, values can overlap the other calls
E-sel inducer: induces E-selectin expression in human endothelial cells; P16581; HUVEC E-selectin immunofluorescence imaging; normalized: neutral wells 0, TNF-alpha wells 100; activation, % at 7.58 µM; 260,000 compounds, 0.37% hits; AID 686992;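 active = mean E-selectin-positive cell signal at least 10% of the positive control, reached in at least 60% of replicates, without over 20% cell loss; inconclusive = no rule given, readout overlaps actives, possibly toxicity-flagged; inactive = the rest, including those meeting only one limit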
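Assay system: HUVEC primary endothelial cells. Input: 3,000 HUVEC seeded per well. Doses: one compound dose added by pin transfer. Read-out basis: % PE-positive cells. Benchmarks: TNF-alpha high, DMSO low. Detection: immunofluorescence imaging. Buffer or medium: EGM-2, gelatin.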
esBAF inh: SWI/SNF esBAF complex inhibition. mouse ES cells, Bmi1-luciferase knock-in reporter, 24 h; 100% = twice the neutral-well signal. reporter increase, % at 12.5 µM. 350,000 compounds, 2% hits; in the data active = activation above about 40%; inconclusive = no clear call, values can overlap the other calls;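 note: 0% = median of the plate's neutral control wells and 100% = double that signal; a rise in the Bmi1 reporter signal indicates esBAF inhibition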
UUG fidelity: modulators of start codon recognition fidelity in yeast; AID 602363; activity score, % at 18.7 µM; S. cerevisiae UUG-firefly luciferase reporter, luminescence/redox ratio; 0.13% of 350,000 active;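 active = replicate mean at a twofold rise or more, about +100% in these data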;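 note: firefly luciferase made from a UUG start codon reports start codon fidelity; reporter light over untreated wells divided by growth signal over untreated wells; some hits fall short of that in this replicate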
Numbers without * were called inactive. Most compounds without a hit are left out; they make up all but 2.8% or so of the library.

Results for C[C@H]1CN([C@@H](C)CO)C(=O)Cc2cc(NS(=O)(=O)c3ccc(Cl)cc3)ccc2O[C@@H]1CN(C)CC1CCCCC1 ?
Statin myotox sup: 112*; PGC1a acetyl inh: -8; E-sel inducer: -13; esBAF inh: 3

What do the screens show for `C[C@H](CO)N1C[C@H](C)[C@@H](CN(C)Cc2ccc(Cl)c(Cl)c2)Oc2ccc(NS(=O)(=O)c3ccc(Cl)cc3)cc2CC1=O`?
Statin myotox sup: 84*; PGC1a acetyl inh: -5; PglD DTNB: -2; E-sel inducer: 0; esBAF inh: 0; UUG fidelity: 0

How did COc1ccc(S(=O)(=O)Nc2ccc3c(c2)C(=O)N([C@@H](C)CO)C[C@@H](C)[C@@H](CN(C)Cc2ccc(Cl)c(Cl)c2)O3)cc1 do in these assays?
PGC1a acetyl inh: 3; PglD DTNB: 2; E-sel inducer: 42*; esBAF inh: 7; UUG fidelity: 3

What do the screens show for `C[C@@H]1CN([C@@H](C)CO)S(=O)(=O)c2ccc(Br)cc2O[C@H]1CN(C)C(=O)C1CC1`?
Statin myotox sup: 57; PGC1a acetyl inh: -13; PglD DTNB: 5; esBAF inh: 5; UUG fidelity: 11

Results for COc1ccc(S(=O)(=O)Nc2ccc3c(c2)CC(=O)N([C@@H](C)CO)C[C@@H](C)[C@H](CN(C)Cc2ccc(Cl)c(Cl)c2)O3)cc1 ?
Statin myotox sup: inconclusive; PGC1a acetyl inh: 5; PglD DTNB: 0; E-sel inducer: 0; esBAF inh: 2; UUG fidelity: -1

What do the screens show for `C[C@@H]1CN([C@H](C)CO)C(=O)Cc2cc(NS(=O)(=O)c3ccc(F)cc3)ccc2O[C@H]1CN(C)Cc1ccc(Cl)c(Cl)c1`?
Statin myotox sup: 83*; PGC1a acetyl inh: -8; E-sel inducer: 2; esBAF inh: 13

Results for COc1ccc(S(=O)(=O)Nc2ccc3c(c2)CC(=O)N([C@H](C)CO)C[C@H](C)[C@@H](CN(C)Cc2ccc(Cl)c(Cl)c2)O3)cc1 ?
Statin myotox sup: 201*; PGC1a acetyl inh: -28; PglD DTNB: 4; E-sel inducer: 1; esBAF inh: 17; UUG fidelity: 15

How did CCNC(=O)Nc1ccc2c(c1)C(=O)N(C)[C@H]1CC[C@H](CC(=O)NCc3ccccc3F)O[C@@H]1CO2 do in these assays?
Statin myotox sup: -21; PGC1a acetyl inh: 2; PglD DTNB: 1; E-sel inducer: 0; esBAF inh: 0; UUG fidelity: -2

Results for C/C(=N\NC(=O)C1CCCC1)c1ccc(Cl)cc1 ?
Statin myotox sup: -5; PglD DTNB: 5; E-sel inducer: 0; esBAF inh: 14; UUG fidelity: -10

What do the screens show for `C/C(=N\NC(=O)C1CC1)c1ccc(Cl)cc1`?
Statin myotox sup: -6; PGC1a acetyl inh: -10; E-sel inducer: 121*; esBAF inh: 10

What do the screens show for `Cc1noc(C)c1S(=O)(=O)N(C)C[C@H]1Oc2ccc(NS(=O)(=O)c3cn(C)cn3)cc2CC(=O)N([C@H](C)CO)C[C@H]1C`?
Statin myotox sup: -4; PGC1a acetyl inh: -6; PglD DTNB: 1; E-sel inducer: 0; esBAF inh: -2; UUG fidelity: -7

How did Cc1ccc(CCNC(=O)C23CN(Cc4ccccc4)CC2C(c2ccc([N+](=O)[O-])cc2)=NO3)cc1 (stereo not drawn) do in these assays?
Statin myotox sup: 5; PglD DTNB: 4; E-sel inducer: 0; esBAF inh: -16; UUG fidelity: -10

Results for Cc1ccc(CNC(=O)C23CN(Cc4ccccc4)CC2C(c2ccc([N+](=O)[O-])cc2)=NO3)cc1 (stereo not drawn) ?
Statin myotox sup: 92*; PGC1a acetyl inh: -7; PglD DTNB: -3; E-sel inducer: 0; esBAF inh: 0; UUG fidelity: -41

Results for O=C(C[C@@H]1CC[C@@H]2[C@H](COC[C@@H](O)CN2C(=O)c2ccccc2)O1)NCCCN1CCOCC1 ?
Statin myotox sup: -1; PGC1a acetyl inh: 3; PglD DTNB: -6; E-sel inducer: 0; esBAF inh: -2

By substructure, the entries above with a nitro group on carbon.
How did Cc1ccc(CCNC(=O)C23CN(Cc4ccccc4)CC2C(c2ccc([N+](=O)[O-])cc2)=NO3)cc1 (stereo not drawn) do in these assays?
Statin myotox sup: 5; PglD DTNB: 4; E-sel inducer: 0; esBAF inh: -16; UUG fidelity: -10

Results for Cc1ccc(CNC(=O)C23CN(Cc4ccccc4)CC2C(c2ccc([N+](=O)[O-])cc2)=NO3)cc1 (stereo not drawn) ?
Statin myotox sup: 92*; PGC1a acetyl inh: -7; PglD DTNB: -3; E-sel inducer: 0; esBAF inh: 0; UUG fidelity: -41
